HCMV UL50-53 inh: cytomegalovirus nuclear egress complex inhibition. HTRF UL50-UL53 interaction, normalized percent inhibition. inhibition, % (test concentration not listed). 0.15% of 190,000 active; in the data active = inhibition above about 27%, passing the limit was not always enough
GIV-Gai inh: GIV-Galpha-i interaction inhibition; AID 1224905; 210,000 tested, 0.42% active; Galpha-i3/FITC-GIV peptide fluorescence polarization, 90 min; stronger effect = lower value; scaled: aluminum fluoride 0%, vehicle 100%; percent of control (FP), % (concentration not given with the values);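 active = replicate mean at 85% of control or lower, very high polarization wells dropped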;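 also: wells of about 15 µL received 100 nL stock; the first replicate is given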
GIV-Gai FP conf: confirmation of inhibitors of GIV binding to rat Galpha-i3. shares compounds with GIV-Gai inh. FITC-GIV peptide binding to Galphai3, fluorescence polarization; hits give low values. 38% of 580 active. fluorescence polarization, mP at 100 µM. AID 1259350;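 active = inhibition score of 15 or more, meaning 100 minus mean polarization as percent of control over three replicates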;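 note: lower mP means peptide displaced from Galphai3 so more inhibition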
GIV Gai AS conf: GIV-Galpha-i3 inhibition, AlphaScreen confirmation | shares compounds with GIV-Gai inh | AlphaScreen Galphai3-GIV binding, purified proteins, 90 min; hits give low values | AlphaScreen counts at 100 µM | 39% of 580 active | AID 1259351;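 active = inhibition score at or above a set limit, where the score is 100 minus the three-replicate mean percent of control signal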
An asterisk follows results filed as active; . = not tested or not shown. The entries come from a sample that favours hits as a whole.

SMILES | HCMV UL50-53 inh | GIV-Gai inh | others
COC(=O)Cn1cc(C=C2C(=O)N(C)C(=O)N(C)C2=O)c2ccccc21 | -15 | -2.1*
CCN1C(=O)NC(=O)/C(=C\c2cn(CC(=O)O)c3ccccc23)C1=O | -39 | 110
CCOC(=O)COc1ccc(/C=C2\C(=O)NC(=S)N(c3ccc(OC)cc3)C2=O)cc1OC | -32 | 102
COc1cc(C=C2C(=O)NC(=O)NC2=O)ccc1OS(=O)(=O)c1ccccc1 | 60* | 89
COc1ccc(C=C2C(=O)NC(=O)NC2=O)cc1 | . | 97
CCOC(=O)CSCCOc1ccc(C=C2C(=O)NC(=O)NC2=O)cc1OC | 60* | 98
O=C(COc1ccccc1)N1CCN(Cc2noc(-c3ccccc3)n2)CC1 | . | 104
C=CCOC(=O)C1=C(C)OC(N)=C(C(=O)OCc2ccccc2)C12C(=O)Nc1ccccc12 (configuration not stated) | -9 | 102
OC1/C(=C/c2ccccc2Cl)N2CCC1CC2 (configuration not stated) | . | 111
O=c1ccc2[nH]cc(C3=CCNCC3)c2[nH]1 | 5 | 107
C1=C(c2c[nH]c3ccccc23)CCNC1 | -26 | -23*
CCOC(=O)C1=C(C)OC(N)=C(C#N)C12C(=O)N1c3c(cccc32)C(C)CC1(C)C (configuration not stated) | 2 | 100
CN1CCc2[nH]c(=S)c(C#N)c(-c3ccccc3)c2C1 | -30 | .
CN1CCc2c(C#N)c(N)n(N)c(=S)c2C1 | -67 | -103*
CC1(C)CC(O)CC(C)(C)N1O | -9 | .
CCOC(=O)C1C(=O)NC2(C)CC1c1ccccc1O2 (configuration not stated) | . | 98
CN1C(=O)[C@]23CC4=CC=C[C@H](O)[C@H]4N2C(=O)[C@@]1(CO)SS3 | 55* | .
C[C@]12Cc3cn4c(nc3C=C1CCC1C2CC[C@@]2(C)[C@H]1CC[C@@]2(O)C#N)nc1ccccc14 (some centres not stated) | -22 | 106
COc1ccc(N2C(=O)NC(=O)/C(=C\c3cn(CC(=O)Nc4ccccc4)c4ccccc34)C2=O)cc1 | . | 89
CCOc1ccc(N2C(=O)NC(=O)/C(=C/c3cn(CC(=O)Nc4ccccc4)c4ccccc34)C2=O)cc1 | 1 | -4.9*

Looked up by compound from above (4):
SMILES | HCMV UL50-53 inh | GIV-Gai inh | others
COc1ccc(C=C2C(=O)NC(=O)NC2=O)cc1 | . | 97
CCOC(=O)C1C(=O)NC2(C)CC1c1ccccc1O2 (configuration not stated) | . | 98
CN1CCc2[nH]c(=S)c(C#N)c(-c3ccccc3)c2C1 | -30 | .
CCOC(=O)COc1ccc(/C=C2\C(=O)NC(=S)N(c3ccc(OC)cc3)C2=O)cc1OC | -32 | 102

Further entries:
SMILES | HCMV UL50-53 inh | GIV-Gai inh | others
COc1ccc2c(c1)C1(CCN(C(=O)Nc3ccc4c(c3)OCCO4)C1)C(=O)N2C (configuration not stated) | . | 98
N#CC(C#N)=Cc1ccc(-c2ccccc2)o1 | -19 | -0.4*
Cc1ccc(C=C(C#N)C#N)o1 | -65 | 104
O=c1cccc2n1CC1CC2CN(CC(O)c2ccc3[nH]ccc3c2)C1 (configuration not stated) | -23 | 117
O=C1NC(=O)N(Cc2ccccc2)C(=O)/C1=C\c1ccccc1 | . | 15* | GIV-Gai FP conf=31*;GIV Gai AS conf=14998*
O=C1NC(=O)N(Cc2ccccc2)C(=O)/C1=C/c1ccc(O)cc1 | 31 | 111
Cc1cc(C(=O)O)c(C)n1Cc1ccccc1 | 17 | 108
CCOC(=O)C1=C(NC(=O)c2ccccc2)c2ccccc2CC12CCCCC2 | . | 103
COC(=O)CCc1cc(C(C)(C)C)c(OP(O)Oc2c(C(C)(C)C)cc(CCC(=O)OC)cc2C(C)(C)C)c(C(C)(C)C)c1 | . | 109
Cn1c(=O)c2ncnnc2n(C)c1=O | 12 | 77* | GIV-Gai FP conf=58*;GIV Gai AS conf=35976
CC(C)(C)CC(=O)NC1CCSC1=O (configuration not stated) | -20 | 103
O=C1NC(=S)NC(=O)C1=Cc1ccco1 | 2 | 73* | GIV-Gai FP conf=57*;GIV Gai AS conf=5695*
CN1C(=O)NC(=O)/C(=C/c2ccco2)C1=O | -2 | 100

Screening results as filed in PubChem.
